Source: patent US6476032B2, “2,3,4,4a-tetrahydro-1H-pyrazino[1,2-a]quinoxalin-5(6H)one derivatives” (Wyeth, priority 1998, dated 2002)

Chains of the proteins cited; added tags and fusions are not shown. Residues count along the entry.
UniProt P28335, 33-458: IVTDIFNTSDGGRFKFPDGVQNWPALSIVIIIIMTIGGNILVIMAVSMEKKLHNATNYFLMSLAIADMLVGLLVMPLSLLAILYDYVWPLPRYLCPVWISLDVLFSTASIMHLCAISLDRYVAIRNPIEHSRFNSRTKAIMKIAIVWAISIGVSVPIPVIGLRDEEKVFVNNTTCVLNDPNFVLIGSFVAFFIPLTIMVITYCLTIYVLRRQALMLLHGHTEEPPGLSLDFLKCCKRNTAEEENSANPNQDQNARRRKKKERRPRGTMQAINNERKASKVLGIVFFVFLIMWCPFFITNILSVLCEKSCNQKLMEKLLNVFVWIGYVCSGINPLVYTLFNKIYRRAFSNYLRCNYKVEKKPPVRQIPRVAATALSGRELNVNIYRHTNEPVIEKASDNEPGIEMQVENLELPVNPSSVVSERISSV

Columns and labels:
[1] = target: T1, human 5-hydroxy-tryptamine2C (h5HT2C) receptor (Homo sapiens, UniProt P28335); test: 5HT2C Receptor Binding Test Procedure ([125I] DOI); conditions: reference compounds; [125I] DOI binding, CHO cell membranes; read-out: Ki value and 95% confidence interval
T1 construct: expressed in transfected cells; host or cells: CHO (Chinese Hamster Ovary) cells; membranes

[2] = target: T2, human 5-HT2C receptor (Homo sapiens, UniProt P28335); test: Stimulation of [3H] Inositol Monophosphate Production by 5HT2C Agonists; assay type: cell-based
T2 construct: expressed in transfected cells; host or cells: CHO cells

Clc1cccc(N2CCNCC2)c1 [mCPP, meta-chlorophenylpiperazine, reference compound]
Ki [1]: 6.5 nM | EMAX (relative to 5-HT) ([2]; reference compound, relative to 5-HT): 60% | EC50 ([2]; reference compounds, [3H] IP1 production in CHO cells): 46.8 nM
